US9611261B2, “Perfluorinated cyclopropyl fused 1,3-oxazin-2-amine compounds as beta-secretase inhibitors and methods of use” (AMGEN INC., priority 2013, dated 2017)

Tested on: Abeta 40 in cerebrospinal fluid and brain
Assay: In vivo inhibition of beta-secretase: Abeta 40 reduction in CSF and brain of the rat
Settings: after 4 hrs

## N#Cc1ccc(C(=O)Nc2cc(F)c(F)c([C@@]3(C(F)F)N=C(N)O[C@@H]4C[C@@H]43)c2)nc1 [Example 113, N-(3-((1R,5S,6R)-3-amino-5-(difluoromethyl)-2-oxa-4-azabicyclo[4.1.0]hept-3-en-5-yl)-4,5-difluorophenyl)-5-cyanopicolinamide]
Abeta 40, rat CSF, 10 mpk
  % reduction of rat CSF levels at 10 pmk: 65%
Abeta 40, rat brain
  % reduction of rat brain levels at 10 mpk: 58%
